## Antibody variant affinities, Ab-14 heavy chain, assay 1

Data: MIT Lincoln Laboratory AlphaSeq set, Engelhart et al. 2022, doi:10.1038/s41597-022-01779-4, as distributed in FLAb.

All variants were tested on one target, the spike HR2 peptide PDVDLGDISGINAS (SARS-CoV-2).

Parent scFv Ab-14: VH joined to VL by a (GGGGS)3 linker. Changes lie in the heavy chain CDRs alone.
VH: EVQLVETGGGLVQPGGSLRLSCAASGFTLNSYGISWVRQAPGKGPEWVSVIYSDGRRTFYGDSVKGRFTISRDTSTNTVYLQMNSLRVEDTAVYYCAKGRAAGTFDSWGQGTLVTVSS
VL: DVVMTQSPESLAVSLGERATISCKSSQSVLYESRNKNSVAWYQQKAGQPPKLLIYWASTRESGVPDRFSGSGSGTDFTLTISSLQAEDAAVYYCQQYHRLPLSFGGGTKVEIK

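The parent was found by panning a naive human phage display library on the peptide. Variants in AAYL49 differ from the parent at up to three CDR positions; double and triple changes were sampled at random. Affinity was read by AlphaSeq, a pooled yeast mating assay with surface-displayed partners. Pairs that bind mate more often; barcode pairs of the diploids are counted by sequencing. Each replicate has its own calibration line, from reference interactions of the BCL2 family. Mating was done three times.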

Sequences are complete VH domains. Values are log10 of the apparent Kd in nM; lower means stronger binding. Averages over replicates are reported, and they cover detected replicates only. Where no diploid with the target was found in that replicate, the entry reads "ND": below detection, most likely a poor binder, though not proof of it. Three control strains display no target. For library AAYL49, 15% of the pairings with them gave a signal, with a median of 4.06 and one signal in twenty below 2.83, so weak values seen in few replicates may be background. For reference, the parent read 0.65 as the reference entry and 4.11 (one replicate of three) as a member of this library.

VH	replicates, log10 nM	mean, log10 nM
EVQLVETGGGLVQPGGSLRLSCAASGFRLNSYGISWVRQAPGKGPEWVSVIYSDGRPTFYGDSVKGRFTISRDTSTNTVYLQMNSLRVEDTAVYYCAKIRAAGTFDSWGQGTLVTVSS	ND ND ND	ND
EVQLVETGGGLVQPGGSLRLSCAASGFTLNSYGISWVRQAPGKGPEWVSVIYSDGRRTFYGDSRKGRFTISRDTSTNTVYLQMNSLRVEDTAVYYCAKALAAGTFDSWGQGTLVTVSS	ND 4.91 3.12	4.01
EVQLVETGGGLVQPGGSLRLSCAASGFTLNSYGISWVRQAPGKGPEWVSDQYSDGRATFYGDSVKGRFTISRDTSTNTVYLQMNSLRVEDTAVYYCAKGRAAGTFDSWGQGTLVTVSS	ND ND ND	ND
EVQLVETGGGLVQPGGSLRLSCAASGFTLNSYGISWVRQAPGKGPEWVSVIYSDGRRTMYGDSVKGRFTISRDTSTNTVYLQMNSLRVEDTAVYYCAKGRAAGTFASWGQGTLVTVSS	3.96 ND ND	3.96
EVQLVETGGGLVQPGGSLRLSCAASGFTLMSYGISWVRQAPGKGPEWVSVIYSDGWRTFYGDSVKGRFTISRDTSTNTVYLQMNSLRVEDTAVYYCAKGRAAGTFTSWGQGTLVTVSS	3.29 ND ND	3.29
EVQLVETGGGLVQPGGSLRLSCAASGFTLNSYGISWVRQAPGKGPEWVSVIYNDGRRTFYGDHVKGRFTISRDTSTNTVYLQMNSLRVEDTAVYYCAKGRTAGTFDSWGQGTLVTVSS	1.61 2.81 2.13	2.18
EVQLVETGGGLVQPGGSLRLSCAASGFTLNSWGISWVRQAPGKGPEWVSVIYSVGRRQFYGDSVKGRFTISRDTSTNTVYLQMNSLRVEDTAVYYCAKGRAAGTFDSWGQGTLVTVSS	ND ND 5.17	5.17
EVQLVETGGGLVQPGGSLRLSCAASGFTLNSPGISWVRQAPGKGPEWVSVIYSDGRRTFYGDSVKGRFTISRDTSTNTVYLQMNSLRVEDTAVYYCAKGHAAQTFDSWGQGTLVTVSS	ND ND 5.36	5.36
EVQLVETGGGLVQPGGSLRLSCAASGFTLISYGISWVRQAPGKGPEWVSVFYSDGRRWFYGDSVKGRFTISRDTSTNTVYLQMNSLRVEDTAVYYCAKGRAAGTFDSWGQGTLVTVSS	ND 3.08 ND	3.08
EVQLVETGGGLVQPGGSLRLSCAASGFTLNSYEISWVRQAPGKGPEWVSVIYSDGRRTFEGDSVKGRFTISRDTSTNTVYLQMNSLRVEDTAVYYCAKGRAAGTFDWWGQGTLVTVSS	ND ND ND	ND
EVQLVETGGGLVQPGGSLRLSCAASGFTLNSYFESWVRQAPGKGPEWVSPIYSDGRRTFYGDSVKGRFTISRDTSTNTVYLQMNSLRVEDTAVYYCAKGRAAGTFDSWGQGTLVTVSS	ND ND ND	ND
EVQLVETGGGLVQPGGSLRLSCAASGFTLNSYGISWVRQAPGKGPEWVSVIGSDGRRTFYGHSVKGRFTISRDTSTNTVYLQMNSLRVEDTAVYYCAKHRAAGTFDSWGQGTLVTVSS	ND ND 3.11	3.11
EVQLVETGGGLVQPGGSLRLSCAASGFTLNSYGISWVRQAPGKGPEWVSVIYSDFRRTFYGDSSKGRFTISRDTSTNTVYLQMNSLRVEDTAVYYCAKGRAAKTFDSWGQGTLVTVSS	ND ND ND	ND
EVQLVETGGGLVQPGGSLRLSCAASGFTLNIYGISWVRQAPGKGPEWVSVIYSDGMRTFYGDSVKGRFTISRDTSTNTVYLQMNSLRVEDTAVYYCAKGRAAGTFDAWGQGTLVTVSS	ND ND 2.71	2.71
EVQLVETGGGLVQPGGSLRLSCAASGFTLNSYGISWVRQAPGKGPEWVSIIYSDGRRTFYGDCVKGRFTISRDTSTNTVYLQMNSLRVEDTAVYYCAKMRAAGTFDSWGQGTLVTVSS	ND 3.77 ND	3.77
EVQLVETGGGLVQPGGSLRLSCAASGFYLNSYGWSWVRQAPGKGPEWVSVIYSDGRRTFYGDSVKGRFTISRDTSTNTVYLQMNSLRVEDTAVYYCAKGRGAGTFDSWGQGTLVTVSS	ND ND ND	ND
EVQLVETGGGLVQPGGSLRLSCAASGFTLNSYGISWVRQAPGKGPEWVSVIYSDGRRTFYGDCVKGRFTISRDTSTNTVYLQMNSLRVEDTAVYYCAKGMAAGTFDSWGQGTLVTVSS	2.07 2.85 2.48	2.47
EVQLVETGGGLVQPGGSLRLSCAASGFEWNSYGGSWVRQAPGKGPEWVSVIYSDGRRTFYGDSVKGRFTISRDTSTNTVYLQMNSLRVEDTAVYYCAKGRAAGTFDSWGQGTLVTVSS	ND 4.30 ND	4.30
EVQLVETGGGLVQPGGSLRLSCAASGWTLNSYGISWVRQAPGKGPEWVSVIASDGRQTFYGDSVKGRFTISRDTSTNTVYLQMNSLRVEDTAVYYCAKGRAAGTFDSWGQGTLVTVSS	3.70 ND 4.14	3.92
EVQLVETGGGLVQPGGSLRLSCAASGFTLNSKGISWVRQAPGKGPEWVSVIYSDGRRTFYGDSVKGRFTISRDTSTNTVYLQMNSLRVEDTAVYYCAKGRAAGNFDSWGQGTLVTVSS	ND 1.97 ND	1.97
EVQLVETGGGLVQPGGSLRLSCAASGFTLNSYGISWVRQAPGKGPEWVSVIYSDGHRVFYGDSVKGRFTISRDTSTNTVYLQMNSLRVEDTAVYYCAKGRAAGTFDSWGQGTLVTVSS	0.83 0.96 0.77	0.86
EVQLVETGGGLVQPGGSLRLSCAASGFTLNSYGISWVRQAPGKGPEWVSVIYSDGRRSFYGDSVKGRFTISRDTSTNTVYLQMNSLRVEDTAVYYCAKGRAAGTFDQWGQGTLVTVSS	2.27 1.69 1.86	1.94

2 of these entries, quoted again:

VH	replicates, log10 nM	mean, log10 nM
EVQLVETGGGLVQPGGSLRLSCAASGFTLNIYGISWVRQAPGKGPEWVSVIYSDGMRTFYGDSVKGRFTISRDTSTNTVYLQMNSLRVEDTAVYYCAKGRAAGTFDAWGQGTLVTVSS	ND ND 2.71	2.71
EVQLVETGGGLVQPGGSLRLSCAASGFTLNSYGISWVRQAPGKGPEWVSVIYSDGRRTMYGDSVKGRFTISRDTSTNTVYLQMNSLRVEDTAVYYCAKGRAAGTFASWGQGTLVTVSS	3.96 ND ND	3.96